Test [1] has as its target Cytochrome P450 2C9 (Homo sapiens) (UniProt P11712). The test is described as follows: Cytochrome P450 family 2 subfamily C member 9 (CYP2C9) small molecule antagonists: luciferase qHTS assay (AID 1645842; active = well fitted curve in the direction sought with a large enough effect in the repeat runs; an effect the other way counts as inactive or inconclusive; also: % is scaled to controls: 0 for no effect and ±100 for the full control effect; nearly all actives have a fitted effect of over 55% in size). The settings on record: P450-Glo CYP2C9 enzyme assay, luciferin luminescence; at 57.4 µM (top of the series). In a few lines: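 Luminescence, after 20 min with luciferin detection reagent, reflected CYP2C9 turnover during a 1 h NADPH-driven reaction at 37C. Enzyme-substrate mix contained 0.4% bovine serum albumin and was preincubated with compound 10 min at room temperature.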
On the technique in general: Quantitative high-throughput screening tests each substance at several concentrations.

By UniProt entry, the sequences of proteins in these tests, tags left out.
UniProt P11712, whole entry: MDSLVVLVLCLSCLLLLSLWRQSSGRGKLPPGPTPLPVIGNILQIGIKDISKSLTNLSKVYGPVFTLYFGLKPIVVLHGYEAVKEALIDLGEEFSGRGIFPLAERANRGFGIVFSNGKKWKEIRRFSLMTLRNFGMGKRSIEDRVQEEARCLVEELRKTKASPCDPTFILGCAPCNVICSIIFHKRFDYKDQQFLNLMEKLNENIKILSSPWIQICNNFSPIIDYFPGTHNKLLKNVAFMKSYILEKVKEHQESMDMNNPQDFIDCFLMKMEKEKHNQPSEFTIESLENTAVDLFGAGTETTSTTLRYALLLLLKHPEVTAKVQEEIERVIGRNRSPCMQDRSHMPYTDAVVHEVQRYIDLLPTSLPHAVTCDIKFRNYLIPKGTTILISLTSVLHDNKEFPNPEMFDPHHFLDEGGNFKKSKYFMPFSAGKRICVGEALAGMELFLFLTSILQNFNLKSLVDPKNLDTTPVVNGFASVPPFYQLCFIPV
UniProt P07203, whole entry: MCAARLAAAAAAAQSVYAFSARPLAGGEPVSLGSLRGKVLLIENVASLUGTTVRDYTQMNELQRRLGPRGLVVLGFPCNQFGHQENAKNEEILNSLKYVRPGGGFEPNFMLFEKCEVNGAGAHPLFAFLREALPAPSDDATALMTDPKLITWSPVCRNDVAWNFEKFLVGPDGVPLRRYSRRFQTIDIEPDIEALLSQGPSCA
UniProt P36969, whole entry: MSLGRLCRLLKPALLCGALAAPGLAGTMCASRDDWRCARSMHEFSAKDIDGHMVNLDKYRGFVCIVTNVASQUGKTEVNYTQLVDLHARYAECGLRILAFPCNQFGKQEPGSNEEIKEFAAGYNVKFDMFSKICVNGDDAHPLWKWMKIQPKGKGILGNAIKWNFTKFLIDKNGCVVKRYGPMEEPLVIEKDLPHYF

Test [2] in a line: Cytotoxicity counterscreen for inhibitors of SARS-CoV-2 cell entry (AID 1645845; calls by dose curve; also: % is scaled to controls: 0 for no effect and ±100 for the full control effect; nearly all actives have a fitted effect of over 50% in size). The settings on record: cell viability (SARS-CoV-2 entry assay cells); at 57.1 µM (top of the series). The gist of the method: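 HEK293-ACE2 cells (Expi293F stably expressing human ACE2) seeded overnight, then compound for 1 h plus 48 h at 37C. Viability as ATP content by luminescence; normalized to wells with cells and media-only wells.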
For orientation: The purpose of a counterscreen is to sort out artefacts and off-target activity.

A short description of test [3]: Primary qHTS for inhibitors of nuclear receptor binding SET domain protein 2 (NSD2) in an RCH-ACV wild type WT cells (2C) (AID 1645877). Also: nearly all actives have a fitted effect of over 70% in size. Also: potency is read from the fitted curve at half-maximal effect.
Test [4] has as its target Glutathione peroxidase 1 (Homo sapiens) (UniProt P07203). Put plainly: Primary qHTS Assay for Inhibitors of Recombinant Selenoprotein Glutathione Peroxidase 1 (GPX1) (AID 1845191). Also: nearly all actives have a fitted effect of over 65% in size. As to activity, negative = inhibition: % is scaled to controls: 0 for no effect and ±100 for the full control effect. The settings on record: recombinant GPX1, GR-coupled NADPH fluorescence, 15 min; activity, negative = inhibition: at 48.8 µM (top of the series). The gist of the method:
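GR-coupled assay: compounds preincubated 30 min at room temperature with GPX1, then reaction started with CHP; final 10 nM GPX1, 1 mM GSH, 0.5 mM CHP, 0.5 mM NADPH, 100 nM GR, 0.01% BSA, pH 7.5 Tris buffer. NADPH fluorescence (340/450 nm) read at 0 and 15 min.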

The target of test [5] is Phospholipid hydroperoxide glutathione peroxidase GPX4 (Homo sapiens) (UniProt P36969). The test is described as follows: Primary qHTS Assay for Inhibitors of Recombinant Selenoprotein Glutathione Peroxidase 4 (GPX4) (AID 1845192). Also: nearly all actives have a fitted effect of over 65% in size. As to activity change, negative = inhibition: % is scaled to controls: 0 for no effect and ±100 for the full control effect. The settings on record: recombinant GPX4, GR-coupled NADPH fluorescence, 15 min; activity change, negative = inhibition: at 50 µM (top of the series). The gist of the method: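 GR-coupled assay: recombinant GPX4 preincubated 30 min with compound at room temperature; final 200 nM GPX4, 1 mM GSH, 0.5 mM cumene hydroperoxide, 0.5 mM NADPH, 100 nM GR, 0.01% BSA, pH 7.5 Tris. NADPH fluorescence (340/450 nm) read at 0 and 15 min.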

Test [6] can be described thus: Quantitative High-Throughput drug screen in 47 multiple myeloma cell lines against the NCATS MIPE library collection: AMO1_DSMZ cell viability assay (AID 1918927; also: nearly all actives have a fitted effect of over 30% in size). The settings on record: AMO1 myeloma cells viability, CellTiter-Glo ATP luminescence, 48 h; at 45.8 µM (top of the series). The gist of the method: (§1)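 We plated 500 myeloma cells per well, pinned in MIPE 4.0 compounds, and incubated for 48 hours at 37C. ATP was then quantified with CellTiter-Glo, with DMSO and media-only wells defining 100% and 0%.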
(In general: Cellular ATP, detected with luciferase, serves as a proxy for viable cell number.)

Test [7] is described as follows: Quantitative High-Throughput drug screen in 47 multiple myeloma cell lines against the NCATS MIPE library collection: ARP1_JJKsccF8 cell viability assay (AID 1918928; also: potency is read from the fitted curve at half-maximal effect; nearly all actives have a fitted effect of over 40% in size). The settings on record: ARP1 myeloma cells viability, CellTiter-Glo ATP, 48 h. In a few lines:
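Myeloma cells at 500 per well in 1536-well format treated with MIPE 4.0 library by pin transfer for 48 h at 37C, 5% CO2. Viability from ATP luminescence (CellTiter-Glo), normalized to DMSO (100%) and media-only (0%) wells.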

Test [8] is described as follows: Quantitative High-Throughput drug screen in 47 multiple myeloma cell lines against the NCATS MIPE library collection: ARD_JJKsccE7 cell viability assay (AID 1918929). The settings on record: ARD myeloma cell line viability, CellTiter-Glo, 48 h; at 45.8 µM (top of the series). The gist of the method: as §1
Test [9] in a line: Quantitative High-Throughput drug screen in 47 multiple myeloma cell lines against the NCATS MIPE library collection: Karpas620_DSMZ cell viability assay (AID 1918959). Also: nearly all actives have a fitted effect of over 30% in size. The settings on record: Karpas620 myeloma viability, CellTiter-Glo ATP luminescence, 48 h; at 45.8 µM (top of the series). The gist of the method:
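Inhibition of cell viability is measured here. Each line was plated at 500 cells per well, treated with MIPE 4.0 drugs, kept 48 hours at 37C, then assayed for ATP content by CellTiter-Glo luminescence.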

Test [10] can be described thus: Primary qHTS for inhibitors of nuclear receptor binding SET domain protein 2 (NSD2) in an isogenic RCH-ACV NSD2 p.E1099K mutant (9B) (AID 1645876). Also: % is scaled to controls: 0 for no effect and ±100 for the full control effect; nearly all actives have a fitted effect of over 70% in size. The settings on record: RCH-ACV (leukaemia line) NSD2 E1099K (9B) viability, CellTiter-Glo, 72 h; at 91.9 µM (top of the series).

The values that follow come from PubChem BioAssay (NCATS).

Where “and” joins values, the source holds several entries; their conditions need not be identical. Identical values can stand only once. Only a part is listed here, and it is no random draw. Records with an inconclusive call do not appear. More than one record can exist for a structure, and the calls need not agree. Calls of active or inactive are those of the source. Unless noted, calls follow the shape of the dose curve; as a rule, active = well fitted curve in the direction sought with a large enough effect; inconclusive = small, poorly fitted or top-dose-only effect, or another doubt; inactive = no such curve, though single readings can be large; an effect the other way counts as inactive or inconclusive.

As a reminder, the viability is a read-out of living cells in per cent, often relative to untreated cells.

In the case of `CN(CCCl)CCCl`, the values for the activity change, negative = inhibition in [1] and in test [5] were inactive: -2.97% and inactive: -2.75%, respectively. Further, the activity change, negative = cytotoxicity in [2] is inactive: 1.54% and inactive: -7.57%. Further, the Potency entry in test [3] is “inactive and active: 26.3 µM”; in test [7] it was active: 26.4 µM. Moreover, in test [4], the activity, negative = inhibition was inactive: 0.455%. Further, the result in test [4] and in test [5] was inactive. The viability, % of DMSO in [6] is inactive: 126%. For the same compound, the viability in test [8] was inactive: 103%. For the same compound, in test [9], the viability (% of DMSO) is inactive: 101%.
Consider `CCC(=O)N(c1ccccc1)C1(COC)CCN(CCn2nnn(CC)c2=O)CC1`, for which, in test [10], the activity change, negative = viability loss is inactive: -16.3%. Further, the Potency entry in test [3] is “inactive”.
